Each structure is given as a SMILES string.

Here are results for one compound from patent US20140088192A1, “SUBCUTANEOUSLY INFUSIBLE LEVODOPA PRODRUG COMPOSITIONS AND METHODS OF INFUSION” (SynAgile Corporation, priority 2010, published 2014).

Data set [1] is described as follows: Hydrolysis of LDEE salts to LD in aqueous solution, monitored by HPLC. It counts as physicochemical. The note with it: about 2.5 M, acetate buffered pH 4.60, 72 hours at about 23±2° C.
The nature of data set [2]: Estimated / projected shelf life and operational life (time to LD saturation).

For `CCOC(=O)[C@@H](N)Cc1ccc(O)c(O)c1.Cl` [LDEE.HCl, LDEE Hydrochloride], in data set [1], the “% of the LDEE.HCl hydrolyzed to LD” value is “about 2.4%”. The projected shelf life result in data set [2] (2.7 M, pH 2.3, ambient temperature) is recorded as “about 128 days”. For the same compound, in data set [2] (about 2.5 M, pH 2.3, storage at 4° C.), the “expected time to saturation in LD” value is “about 244 weeks”.
